# Binding of CDR-mutated scFvs to a peptide of the spike HR2 region

The measurements come from Engelhart et al. 2022 (doi:10.1038/s41597-022-01779-4) through the FLAb antibody collection.

Target: peptide PDVDLGDISGINAS, taken from heptad repeat 2 (HR2) of SARS-CoV-2 spike.

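The parent was found by panning a naive human phage display library on the peptide. AAYL49 was designed without a model: most single CDR substitutions and a random sample of double and triple ones. AlphaSeq pools MATa yeast showing the antibodies with MATalpha yeast showing the peptide. Mating (16 h, 30 °C) was followed by selection of diploids and sequencing of their barcodes. Scores were corrected for input abundance and mapped to Kd with protein pairs of known affinity run in the same pool. Each pool was mated in three replicate cultures.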

Each scFv is VH, three GGGGS repeats, VL, as in the parent Ab-14, and differs from it in the CDRs of the heavy chain only.
VH: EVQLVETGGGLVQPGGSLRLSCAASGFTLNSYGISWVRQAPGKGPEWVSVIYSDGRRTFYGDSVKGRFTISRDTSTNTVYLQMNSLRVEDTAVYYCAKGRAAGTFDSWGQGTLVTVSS
VL: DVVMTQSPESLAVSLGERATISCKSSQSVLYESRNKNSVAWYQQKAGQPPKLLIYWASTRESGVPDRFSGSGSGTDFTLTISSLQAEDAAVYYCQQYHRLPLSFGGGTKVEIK

Changes read parent residue, position, new residue, counted from the first residue of the VH shown. Affinities are written as log10 Kd with Kd in nM; a lower number is a better binder. An entry "nd" has no value in the source: the pair was not observed among the diploids in that replicate. This suggests poor binding but is not conclusive. For reference, the parent read 0.65 as the reference entry and 4.11 (one replicate of three) as a member of this library. As a blank, each scFv also met three strains without target: over library AAYL49, 15% of these pairings were detected, typically at 4.06 and seldom below 2.83. Also given: how often the same scFv was detected with the empty control strains.

For R100H/A102L, the assay gave nd, nd, nd (controls 1 of 9).
For Y32P/S63Y/R100W, the assay gave nd, nd, 5.45 (controls 0 of 9).
For Y32W/S53I/A101C, the assay gave nd, 3.76, nd (controls 1 of 9).
For G61T/K65I, the assay gave 3.04, nd, 2.30 (controls 0 of 9).
For F27S/R56M/V64G, the assay gave nd, nd, 5.81 (controls 3 of 9).
For R56L/K65R/D106A, the assay gave 2.62, 3.87, 2.51 (controls 1 of 9).
For R56L/A101V, the assay gave -0.02, 0.42, 0.08 (controls 1 of 9).
For Y32I/T58Q/F105P, the assay gave 4.54, 4.46, 4.98 (controls 7 of 9).
For V64P/G103C/T104C, the assay gave nd, 3.81, nd (controls 1 of 9).
For G103L, the assay gave nd, nd, nd (controls 0 of 9).
For V50I/V64D/R100L, the assay gave nd, nd, nd (controls 0 of 9).
For T58I/F59P/G103W, the assay gave nd, nd, nd (controls 0 of 9).
For G33I/V50K/D106Y, the assay gave nd, nd, nd (controls 0 of 9).
For F27H/N30Q/A101K, the assay gave 5.16, nd, nd (controls 2 of 9).
For D54I/G55L/G103N, the assay gave nd, nd, nd (controls 0 of 9).
For F27T/L29E/V50Q, the assay gave nd, nd, nd (controls 0 of 9).
For L29Q/S53A, the assay gave 1.30, 1.27, 1.51 (controls 3 of 9).
For F27Q/I34S/G99T, the assay gave nd, nd, nd (controls 2 of 9).
For Y52E/S53T/T104H, the assay gave 5.77, nd, 6.50 (controls 8 of 9).
For G33S/Y52W/A102Q, the assay gave nd, nd, nd (controls 1 of 9).
For S35F/F59H/S63G, the assay gave nd, nd, nd (controls 0 of 9).
For T28M/L29E/I34R, the assay gave nd, nd, nd (controls 5 of 9).
For D54Q/G55N/A101P, the assay gave nd, nd, 2.50 (controls 0 of 9).
For G33S/S35H/V50A, the assay gave nd, 3.55, nd (controls 0 of 9).
For T28Q/N30Q/V50D, the assay gave nd, nd, nd (controls 1 of 9).
For F27M/V50M/T58S, the assay gave nd, nd, nd (controls 1 of 9).
For G26D/S31N/K65N, the assay gave 1.38, 1.57, 1.32 (controls 2 of 9).
For A101T, the assay gave 1.43, 1.45, 1.73 (controls 2 of 9).
For Y32G/Y52A/G55S, the assay gave 3.94, 4.14, 4.47 (controls 7 of 9).
For N30C/D54M/F105G, the assay gave nd, nd, nd (controls 0 of 9).
For F59T/V64A/G99W, the assay gave nd, nd, nd (controls 1 of 9).
For V50E/T58E/G61M, the assay gave nd, nd, nd (controls 0 of 9).
For S53H/G99V/T104C, the assay gave nd, nd, 4.10 (controls 0 of 9).
For F27I/I34G/F105R, the assay gave nd, nd, nd (controls 0 of 9).
For Y32I/F59I/S107K, the assay gave nd, 4.31, nd (controls 2 of 9).
For I34C/V64C, the assay gave nd, nd, nd (controls 0 of 9).
For L29V/S53M, the assay gave 3.58, nd, nd (controls 3 of 9).

Extract of 4 entries:

For F59T/V64A/G99W, the assay gave nd, nd, nd (controls 1 of 9).
For G103L, the assay gave nd, nd, nd (controls 0 of 9).
For I34C/V64C, the assay gave nd, nd, nd (controls 0 of 9).
For T28Q/N30Q/V50D, the assay gave nd, nd, nd (controls 1 of 9).